# AlphaSeq binding of Ab-95 light chain variants to a spike HR2 peptide

Reference: Engelhart et al. 2022, doi:10.1038/s41597-022-01779-4. File: FLAb, binding data.

The target is the same throughout: PDVDLGDISGINAS, from the HR2 region of SARS-CoV-2 spike.

Parent: Ab-95, a human scFv built as VH, a (GGGGS)3 linker, VL. Only the CDRs of the light chain vary.
VH: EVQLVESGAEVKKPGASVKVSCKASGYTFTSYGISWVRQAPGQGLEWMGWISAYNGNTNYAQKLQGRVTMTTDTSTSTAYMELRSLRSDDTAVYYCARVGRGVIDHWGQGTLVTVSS
VL: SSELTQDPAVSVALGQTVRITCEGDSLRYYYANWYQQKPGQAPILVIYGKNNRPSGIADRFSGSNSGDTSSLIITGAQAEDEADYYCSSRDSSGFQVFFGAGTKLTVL

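Library AAYL52 holds single substitutions and randomly drawn double and triple substitutions in the CDRs. The assay is AlphaSeq: two haploid yeast populations carry antibody and antigen on their surface. After mating in shaken culture at 30 °C for 16 h, diploids were selected and their barcode pairs sequenced. Read counts were normalised to the haploid input and turned into Kd by a linear fit to BCL2-family pairs of known affinity, for each replicate. There are three technical replicates.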

Changes read parent residue, position, new residue, counted from the first residue of the VL shown. Affinities are written as log10 Kd with Kd in nM; a lower number is a better binder. An entry "n.d." has no value in the source: the pair was not observed among the diploids in that replicate. This suggests poor binding but is not conclusive. As a blank, each scFv also met three strains without target: over library AAYL52, 28% of these pairings were detected, typically at 3.91 and seldom below 2.90. Also given: how often the same scFv was detected with the empty control strains, with their mean in brackets.

| # | changes | log10 Kd, replicates | empty controls |
|---|---|---|---|
| 1 | L27F S88K F95I | 3.60 2.75 3.73 | 3 of 9 (3.77) |
| 2 | S26Y S88T F98C | n.d. 4.49 n.d. | 4 of 9 (3.90) |
| 3 | Y30D S92A Q96P | 3.08 5.84 2.88 | 8 of 9 (4.17) |
| 4 | L27Y S88L R90A | 3.88 3.73 3.81 | 1 of 9 (3.60) |
| 5 | P54M S55Q G94I | 3.50 n.d. n.d. | 1 of 9 (4.68) |
| 6 | E23F A32C R53A | n.d. n.d. n.d. | 3 of 9 (3.46) |
| 7 | G24I D25W Y29T | 4.18 5.38 n.d. | 4 of 9 (3.83) |
| 8 | P54K S92P S93G | 4.11 n.d. n.d. | 0 of 9 |
| 9 | N52L S55V S92L | 2.54 2.83 2.87 | 3 of 9 (4.04) |
| 10 | G24Q R28S | 4.57 3.68 n.d. | 2 of 9 (3.63) |
| 11 | R28K S89P Q96R | 2.31 1.62 1.77 | 2 of 9 (3.97) |
| 12 | F95W Q96D | 3.97 3.39 3.20 | 3 of 9 (4.63) |
| 13 | R28T P54F V97T | n.d. n.d. n.d. | 1 of 9 (4.23) |
| 14 | Y31F R90H S93N | 2.30 2.72 1.81 | 3 of 9 (3.44) |
| 15 | G49W N51K | n.d. n.d. n.d. | 3 of 9 (3.59) |
| 16 | S88M | 1.93 1.76 1.50 | 3 of 9 (3.80) |
| 17 | P54L D91F F98K | 2.47 3.07 3.76 | 1 of 9 (3.30) |
| 18 | Y30T R90N V97E | 2.18 2.60 2.41 | 3 of 9 (3.22) |
| 19 | N33D K50W G94L | n.d. n.d. n.d. | 1 of 9 (4.59) |
| 20 | G24C G94L Q96V | n.d. 3.32 n.d. | 4 of 9 (3.89) |
| 21 | K50M N51V S88F | 4.01 5.77 n.d. | 2 of 9 (4.03) |
| 22 | N51M S92E S93I | n.d. n.d. n.d. | 1 of 9 (3.66) |
| 23 | E23L P54G F95L | 3.57 3.12 3.49 | 3 of 9 (4.18) |
| 24 | Y31G N33I S92E | 2.13 2.14 1.48 | 7 of 9 (4.15) |
| 25 | N33M N51M S89D | n.d. n.d. n.d. | 3 of 9 (3.71) |
| 26 | E23P D25F F98S | 3.47 5.58 n.d. | 1 of 9 (3.66) |
| 27 | Y30P Y31N R90C | 1.54 1.30 1.04 | 3 of 9 (3.52) |
| 28 | Y31D N33P D91I | n.d. n.d. n.d. | 2 of 9 (4.71) |
| 29 | G24I Y29R F95T | 3.50 n.d. 2.68 | 4 of 9 (3.71) |
| 30 | V97L | 2.38 2.53 1.61 | 2 of 9 (3.37) |
| 31 | G49C R90V Q96T | n.d. n.d. 3.74 | 1 of 9 (4.88) |
| 32 | K50H R90L Q96S | 4.92 n.d. n.d. | 3 of 9 (3.98) |
| 33 | S26C N52T S55K | n.d. n.d. n.d. | 2 of 9 (3.55) |
| 34 | E23L S55T | 1.83 1.69 1.59 | 2 of 9 (4.46) |
| 35 | S26L S92I V97G | 3.73 n.d. 4.48 | 1 of 9 (4.99) |
| 36 | P54F R90T D91A | 3.97 n.d. n.d. | 2 of 9 (3.38) |
| 37 | K50S P54T Q96L | 4.44 n.d. n.d. | 3 of 9 (3.76) |
| 38 | L27N K50E Q96E | n.d. n.d. n.d. | 2 of 9 (2.84) |
| 39 | L27T P54I S92W | n.d. n.d. n.d. | 0 of 9 |
| 40 | G24R G49Q G94K | n.d. 3.83 n.d. | 1 of 9 (3.10) |
| 41 | R28M Y30D R53G | 2.38 2.35 2.21 | 2 of 9 (4.72) |
| 42 | A32V K50H S88L | n.d. n.d. n.d. | 1 of 9 (5.61) |

The first 6 variants above that were never detected:

| changes | log10 Kd, replicates | empty controls |
|---|---|---|
| E23F A32C R53A | n.d. n.d. n.d. | 3 of 9 (3.46) |
| R28T P54F V97T | n.d. n.d. n.d. | 1 of 9 (4.23) |
| G49W N51K | n.d. n.d. n.d. | 3 of 9 (3.59) |
| N33D K50W G94L | n.d. n.d. n.d. | 1 of 9 (4.59) |
| N51M S92E S93I | n.d. n.d. n.d. | 1 of 9 (3.66) |
| N33M N51M S89D | n.d. n.d. n.d. | 3 of 9 (3.71) |